Laboratory results from patent US20040101900A1, “Assay for rapid detection of TNT” (published 2004).

Assays:
anti-TNT antibody A1.1.1 [1] = assay: plate-based homogenous cross reactivity assay in PBS; settings: homogeneous format, calculated from the concentrations corresponding to half of the maximum signal, 7 to 5000 μg/L
anti-TNT antibody A1.1.1 [2] = assay: cuvette titration of anti-TNT antibody/Cy5-DAP-TNP complex formation; settings: 5 nM Cy5-DAP-TNP, A1.1.1 added 0.36 nM to 6.54 nM, PBS, 22° C.
anti-TNT antibody 11B3 = assay: microtiter plate-based homogeneous competitive fluoroimmunoassay, 11B3 antibody; settings: plate-based homogeneous assay
anti-TNT antibody A1.1.1 [3] = assay: microtiter plate-based homogeneous competitive fluoroimmunoassay, A1.1.1 antibody; settings: plate-based homogeneous assay
[4] = storage stability of the fluorescent analog; settings: stored in solution or kept at room temperature

Compound | Percent cross-reactivity (anti-TNT antibody A1.1.1 [1]) [%] | increase in fluorescence intensity over the course of the titration (anti-TNT antibody A1.1.1 [2]) | increase in fluorescence on addition of Cy5-DAP-TNP to antibody (anti-TNT antibody 11B3) | increase in fluorescence on addition of Cy5-DAP-TNP to antibody (anti-TNT antibody A1.1.1 [3]) | stability on storage [4]
Cc1c(N)cc([N+](=O)[O-])cc1[N+](=O)[O-] | 9 |  |  |  | 
cyanine diaminopentane trinitrophenyl |  | three-fold | about two-fold | about two-fold | prone to degradation
